Data published in PubChem BioAssay (EPA / NIEHS).
This is a selection; strong and weak results do not stand in their true shares. Activity calls are given as the source filed them. Rule for the calls: active = hit-call score of the fitted dose curve at least 0.9, where 1 is the maximum; inactive = score below 0.9.

Chains of the proteins cited; added tags and fusions are not shown.
UniProt Q9UNQ0, whole entry: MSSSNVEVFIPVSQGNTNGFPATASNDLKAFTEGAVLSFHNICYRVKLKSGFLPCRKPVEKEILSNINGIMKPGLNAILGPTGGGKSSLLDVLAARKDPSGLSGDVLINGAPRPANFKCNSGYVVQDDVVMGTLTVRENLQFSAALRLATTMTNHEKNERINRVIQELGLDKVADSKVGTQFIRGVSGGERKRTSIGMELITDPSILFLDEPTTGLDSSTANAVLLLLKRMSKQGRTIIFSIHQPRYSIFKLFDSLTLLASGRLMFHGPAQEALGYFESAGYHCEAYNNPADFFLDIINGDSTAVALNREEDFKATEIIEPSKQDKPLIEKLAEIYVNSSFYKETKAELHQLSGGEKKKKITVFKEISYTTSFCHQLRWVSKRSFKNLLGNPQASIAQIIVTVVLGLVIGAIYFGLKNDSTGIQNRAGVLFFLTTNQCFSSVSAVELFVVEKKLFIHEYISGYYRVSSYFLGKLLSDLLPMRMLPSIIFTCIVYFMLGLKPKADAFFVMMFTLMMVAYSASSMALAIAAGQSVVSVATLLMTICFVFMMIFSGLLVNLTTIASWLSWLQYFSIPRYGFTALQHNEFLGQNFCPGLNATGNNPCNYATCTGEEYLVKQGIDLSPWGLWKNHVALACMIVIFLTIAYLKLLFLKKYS

Key:
Settings in all cases: actives raise or lower the signal; mRNA level, 48 h
[1] = read-out: Cytochrome P450 (CYP1A1), CYP1A1 (gene 1543); assay: LTEA_HepaRG_CYP1A1: Life Technologies and Expression Analysis (LTEA) Assay for Cytochrome P450 (CYP1A1) using HepaRG (AID 2283454)
In short: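 CYP1A1 transcript levels measured by Fluidigm qRT-PCR against three housekeeping genes, 48 h after chemical dosing of human HepaRG cells (highest concentration 100 uM, half-log steps, 0.5% DMSO vehicle). Gain or loss of signal fitted relative to DMSO.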

[2] = read-out: CFLAR gene, CFLAR (gene 8837); assay: LTEA_HepaRG_CFLAR: Life Technologies and Expression Analysis (LTEA) Assay for CFLAR gene using HepaRG (AID 2283455)
In short: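 Transcript level by qRT-PCR (normalized to ACTB, GAPDH and POLR2A) after 48 h chemical exposure of HepaRG cells, top concentration 100 uM with half-log steps, 0.5% DMSO vehicle, duplicates; fitted bidirectionally against DMSO baseline.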

[3] = read-out: Forkhead box O1 (FOXO1), FOXO1 (gene 2308); assay: LTEA_HepaRG_FOXO1: Life Technologies and Expression Analysis (LTEA) Assay for Forkhead box O1 (FOXO1) using HepaRG (AID 2283456)
In short: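 FOXO1 transcript quantified by qRT-PCR after 48 h chemical exposure (top 100 uM, half-log steps, 0.5% DMSO) of HepaRG cells, housekeeping-normalized (ACTB/GAPDH/POLR2A). Changes fitted in both directions relative to vehicle.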

[4] = read-out: growth arrest and DNA damage 45 (GADD45A), GADD45A (gene 1647); assay: LTEA_HepaRG_GADD45A: Life Technologies and Expression Analysis (LTEA) Assay for growth arrest and DNA damage 45 (GADD45A) using HepaRG (AID 2283458)
In short: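 HepaRG, 48 h exposure, 8 conc. (top 100 uM, half-log steps), 0.5% DMSO vehicle, duplicates. Read-out: qRT-PCR mRNA level, housekeeping-normalized (ACTB/GAPDH/POLR2A). Curves fit bidirectionally vs DMSO baseline.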

[5] = read-out: Forkhead box O3 (FOXO3), FOXO3 (gene 2309); assay: LTEA_HepaRG_FOXO3: Life Technologies and Expression Analysis (LTEA) Assay for Forkhead box O3 (FOXO3) using HepaRG (AID 2283459)
In short: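 FOXO3 transcript measured by qRT-PCR (normalized to ACTB, GAPDH, POLR2A) after 48 h exposure of HepaRG cells in serum-free induction medium. Duplicates, eight half-log concentrations up to 100 uM, 0.5% DMSO; gain or loss fitted against DMSO.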

[6] = read-out: ABC Transporter (ABCB1), ABCB1 (gene 5243); assay: LTEA_HepaRG_ABCB1: Life Technologies and Expression Analysis (LTEA) Assay for ABC Transporter (ABCB1) using HepaRG (AID 2283460)
In short: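 ABCB1 transcript level measured by TaqMan qRT-PCR against three housekeeping genes after 48 h chemical exposure of differentiated HepaRG cells. Top concentration 100 uM, half-log steps, eight points, 0.5% DMSO vehicle; bidirectional fit relative to DMSO.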

[7] = read-out: growth arrest and DNA damage 45 (GADD45B), GADD45B (gene 4616); assay: LTEA_HepaRG_GADD45B: Life Technologies and Expression Analysis (LTEA) Assay for growth arrest and DNA damage 45 (GADD45B) using HepaRG (AID 2283461)
In short: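 Transcript level quantified by Fluidigm TaqMan qRT-PCR with three housekeeping genes for normalization, analyzed for up- or down-regulation against 0.5% DMSO. HepaRG cultures dosed 48 h at eight half-log concentrations up to 100 uM, duplicates.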

[8] = read-out: ABC Transporter (ABCC3), ABCC3 (gene 8714); assay: LTEA_HepaRG_ABCC3: Life Technologies and Expression Analysis (LTEA) Assay for ABC Transporter (ABCC3) using HepaRG (AID 2283462)
In short: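 Transcript level by TaqMan qRT-PCR, normalised to three housekeeping genes, fitted in both directions relative to vehicle. Chemicals tested in duplicate at eight half-log concentrations up to 100 uM for 48 h on HepaRG cells (0.5% DMSO).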

[9] = read-out: ABC Transporter (ABCB11), ABCB11 (gene 8647); assay: LTEA_HepaRG_ABCB11: Life Technologies and Expression Analysis (LTEA) Assay for ABC Transporter (ABCB11) using HepaRG (AID 2283463)
In short: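 ABCB11 transcript levels quantified by TaqMan qRT-PCR against three housekeeping genes after 48 h chemical exposure of HepaRG cultures. Concentrations up to 100 uM in half-log steps, 0.5% DMSO vehicle; both induction and suppression scored.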

[10] = read-out: ABC Transporter (ABCC2), ABCC2 (gene 1244); assay: LTEA_HepaRG_ABCC2: Life Technologies and Expression Analysis (LTEA) Assay for ABC Transporter (ABCC2) using HepaRG (AID 2283464)
In short: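 Endpoint is ABCC2 transcript level from qRT-PCR, normalized to three housekeeping genes and fitted bidirectionally relative to DMSO. Human HepaRG cells received test chemical for 48 h at up to 100 uM (8 points, half-log steps, 0.5% DMSO), duplicate wells.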

[11] = read-out: Broad substrate specificity ATP-binding cassette transporter ABCG2 (Homo sapiens) (UniProt Q9UNQ0); assay: LTEA_HepaRG_ABCG2: Life Technologies and Expression Analysis (LTEA) Assay for ABC Transporter (ABCG2) using HepaRG (AID 2283465)
In short: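 ABCG2 transcript was quantified by TaqMan qRT-PCR against three housekeeping genes in HepaRG cells. Cells were treated in duplicate for 48 h across an 8-point half-log series up to 100 uM, with 0.5% DMSO vehicle. Gain or loss versus DMSO was fit.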

[12] = read-out: ATP-citrate lyase (ACLY), ACLY (gene 47); assay: LTEA_HepaRG_ACLY: Life Technologies and Expression Analysis (LTEA) Assay for ATP-citrate lyase (ACLY) using HepaRG (AID 2283466)
In short: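 ACLY mRNA quantified by qRT-PCR on Fluidigm arrays against three housekeeping genes, after 48 h chemical treatment of HepaRG cells (top concentration 100 uM, half-log steps, 0.5% DMSO vehicle). Up- or down-regulation fitted relative to DMSO.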

[13] = read-out: Peroxisomal acyl-coenzyme A oxidase 1 (ACOX1) gene, ACOX1 (gene 51); assay: LTEA_HepaRG_ACOX1: Life Technologies and Expression Analysis (LTEA) Assay for Peroxisomal acyl-coenzyme A oxidase 1 (ACOX1) gene using HepaRG (AID 2283467)
In short: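 ACOX1 transcript levels were quantified by TaqMan qRT-PCR against three housekeeping genes after 48 h chemical exposure of differentiated human HepaRG cells. Exposure used eight half-log steps topping at 100 uM, 0.5% DMSO vehicle, in duplicate. Bidirectional curve fits were made relative to DMSO.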

[14] = read-out: Alkaline Phosphatase, Placental (ALPP) gene, ALPP (gene 250); assay: LTEA_HepaRG_ALPP: Life Technologies and Expression Analysis (LTEA) Assay for Alkaline Phosphatase, Placental (ALPP) gene using HepaRG (AID 2283468)
In short: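 ALPP transcript level, measured by qRT-PCR and normalized to three housekeeping genes (ACTB, GAPDH, POLR2A), after 48 h dosing of differentiated HepaRG in serum-free induction medium. Top concentration 100 uM with half-log dilutions (8 points, 0.5% DMSO, duplicates); bidirectional fitting relative to DMSO.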

[15] = read-out: Bcl-2 (BAD) gene, BAD (gene 572); assay: LTEA_HepaRG_BAD: Life Technologies and Expression Analysis (LTEA) Assay for Bcl-2 (BAD) gene using HepaRG (AID 2283469)
In short: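 Read-out: qRT-PCR of BAD mRNA, normalized to three housekeeping genes. Human HepaRG cultures got 48 h chemical exposure in 0.5% DMSO, duplicate eight-point half-log series topping at 100 uM. Gain or loss of signal fitted versus DMSO vehicle.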

[16] = read-out: Bcl-2 (BAX) gene, BAX (gene 581); assay: LTEA_HepaRG_BAX: Life Technologies and Expression Analysis (LTEA) Assay for Bcl-2 (BAX) gene using HepaRG (AID 2283470)
In short: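 qRT-PCR read-out of BAX mRNA, normalized to three housekeeping genes, after 48 h chemical exposure of human HepaRG cells in serum-free induction medium; eight-point half-log series, top 100 uM, 0.5% DMSO vehicle; bidirectional fit versus DMSO.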

[17] = read-out: adenosine kinase (ADK) gene, ADK (gene 132); assay: LTEA_HepaRG_ADK: Life Technologies and Expression Analysis (LTEA) Assay for adenosine kinase (ADK) gene using HepaRG (AID 2283471)
In short: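 Following 48 h exposure of HepaRG cells in 0.5% DMSO (top concentration 100 uM, duplicate wells), ADK mRNA induction or suppression was measured by qRT-PCR, normalised to ACTB/GAPDH/POLR2A, and fitted bidirectionally relative to vehicle.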

[18] = read-out: Alpha-fetoprotein (AFP) gene, AFP (gene 174); assay: LTEA_HepaRG_AFP: Life Technologies and Expression Analysis (LTEA) Assay for Alpha-fetoprotein (AFP) gene using HepaRG (AID 2283472)
In short: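 qRT-PCR (Fluidigm TaqMan) readout of AFP transcript, normalized to three housekeeping genes, fitted bidirectionally against 0.5% DMSO baseline. HepaRG cells received chemicals for 48 h in serum-free induction medium, top concentration 100 uM, half-log steps.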

BCL2L11 (gene 10018) = assay: LTEA_HepaRG_BCL2L11: Life Technologies and Expression Analysis (LTEA) Assay for Bcl-2 (BCL2L11) gene using HepaRG (AID 2283473)
In short: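 BCL2L11 transcript levels are measured by Fluidigm qRT-PCR, normalized to three housekeeping genes. HepaRG cultures were plated 48 h, then treated 48 h with test chemical (top 100 uM, half-log, 0.5% DMSO vehicle); curves were fitted bidirectionally against DMSO.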

[19] = read-out: Apolipoprotein A-V (APOA5) gene, APOA5 (gene 116519); assay: LTEA_HepaRG_APOA5: Life Technologies and Expression Analysis (LTEA) Assay for Apolipoprotein A-V (APOA5) gene using HepaRG (AID 2283474)
In short: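 APOA5 transcript levels were quantified by qRT-PCR, normalized to three housekeeping genes, after 48 h chemical treatment of HepaRG cells (8 points, 100 uM maximum, half-log steps, 0.5% DMSO). Curves fitted in both directions against vehicle.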

Measured: AC50

O=[N+]([O-])c1ccccc1[N+](=O)[O-]
active: [1] 63.9 µM
inactive: all other assays above
